# In PubChem BioAssay AID743397 (Broad Institute, 2014):
# Only a part is listed here, and it is no random draw. Active and inactive are the calls of the source.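 How the source made its calls: active means mean replicate inhibition of at least 30% and at least 1% of replicates passing that level; inconclusive means only one of the two criteria is met; inactive means neither criterion is met.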
# Tested on: Voltage-dependent L-type calcium channel subunit alpha-1D (CaV1.3) ICDI/IQ interaction
# Assay: Disruptors of the CACNA1D IQ motif to Ca2+-dependent inactivation inhibitor domain association, primary screening, Förster resonance energy transfer in intact living cells, one concentration (AID 743397);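 further: 0% = median of the neutral control wells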
# Conditions: HEK cells, CFP/YFP FRET ICDI-IQ, plate reader, 10 min; at 12.3 µM; stronger effect = higher value; percent FRET-ratio fall versus neutral wells
row,Structure (SMILES),inhibition
1,Cc1ccccc1CN(C)C(=O)COC(=O)C(O)(c1ccccc1)c1ccccc1,inactive: -15.6%
2,C[C@@H]1C=CCP(=O)(Oc2ccccc2)O1 (some centres not stated),inactive: -5.66%
3,C[C@H]1OP(=O)(Oc2ccccc2)C[C@@H]2O[C@@H]21 (some centres not stated),inactive: -10.3%
4,N#C/C(=C\c1ccc(N(CCBr)CCBr)cc1)C(N)=O,inactive: -7.2%
5,CC(=O)c1ccc(N2CC2c2ccncc2)cc1 (configuration not stated),inactive: -6.1%
6,COC(=O)C1(C)COP(=O)(NCc2ccccc2)OC1 (configuration not stated),inactive: -6.67%
7,CC(=O)Nc1ccc([As](=O)(O)O)c(O)c1,inactive: 3.26%
8,CC(=O)Nc1ccc(Oc2c([N+](=O)[O-])cc([N+](=O)[O-])cc2[N+](=O)[O-])cc1,inactive: -19.5%
9,O=P1(Nc2nc3ccc(Cl)cc3s2)COc2ccccc2O1 (configuration not stated),inactive: -8.76%
10,CCOc1ccc(C2=NCC(CBr)S2)cc1 (configuration not stated),inactive: -3.96%
11,CC(C)(C)C(=O)NC(Sc1ccccc1)C(Cl)(Cl)Cl (configuration not stated),inactive: -6.6%
12,CCc1cc(O)c([N+](=O)[O-])c(C)c1[N+](=O)[O-],inactive: -6.13%
13,O=C(OC1CN2CCC1CC2)c1ccccc1 (configuration not stated),inactive: -4.56%
14,CC(=O)NC(SC(=S)N(CC(C)C)CC(C)C)C(Cl)(Cl)Cl (configuration not stated),inactive: -6.03%
15,Cc1ccc(OP(=O)(Nc2ccccn2)Oc2ccc(C)cc2)cc1,inactive: -3.97%
16,Cc1ccccc1OP(=O)(Nc1ccccn1)Oc1ccccc1C,inactive: -4.55%
17,CC(NC(=O)COC(=O)C(O)(c1ccccc1)c1ccccc1)c1ccccc1 (configuration not stated),inactive: -4.74%
18,CN(C)C(=O)Oc1noc2ccccc12,inactive: -2.07%
19,O=c1c2cc([N+](=O)[O-])ccc2[nH]c2c([N+](=O)[O-])cc([N+](=O)[O-])cc12,inactive: -1.52%
20,c1ccc(-c2nn[nH]n2)c(-c2nn[nH]n2)c1,inactive: -12.7%
21,Cc1ccc(NP(=O)(Oc2cccc(C)c2)Oc2cccc(C)c2)nc1,inactive: -3.7%
22,O=C(NC1CCS(=O)(=O)C1)NP(=S)(Oc1ccccc1)Oc1ccccc1 (configuration not stated),inactive: -4.35%
23,CCNC(=S)/N=C(\N)N[N+](=O)[O-],inactive: -5.04%
24,O=P1(N(CCCl)CCCl)OCCC2CCCCN21 (configuration not stated),inactive: -13.8%
25,O=[As](O)(c1ccccc1)c1ccc(O)cc1,inactive: -15.3%
26,CC(=O)NC(SC(=S)N(C)C)C(Cl)(Cl)Cl (configuration not stated),inactive: -2.35%

row,Structure (SMILES),inhibition
1,O=[N+]([O-])c1ncn(CCn2cnc([N+](=O)[O-])n2)n1,inactive: -1.85%
2,O=C(OC1CN2CCC1CC2)c1cccc(Cl)c1 (configuration not stated),inactive: -5.72%
3,C/C(N)=N\P(=O)(OCc1ccccc1)OCc1ccccc1,inactive: -4.93%
4,Nc1ccc([As](=O)(O)c2ccc([N+](=O)[O-])cc2)cc1,inactive: -4.66%
5,C(Cc1nn[nH]n1)Cc1nn[nH]n1,inactive: -2.74%
6,CN(C)C1(CNC(=O)c2ccc(Cl)c(S(N)(=O)=O)c2)CCCCC1,inactive: -4.5%
7,O=P(Nc1ccccn1)(c1ccc(Br)cc1)c1ccc(Br)cc1,inactive: -4.48%
8,Nc1ccc(CCCCOc2ccccc2)cc1,inactive: -4.74%
9,COc1ccc(N)c([N+](=O)[O-])c1[N+](=O)[O-],inactive: -5.73%
10,O=P(Nc1nc2ccccc2s1)(c1ccccc1)c1ccccc1,inactive: -1.92%
11,O=P(Nc1nccs1)(c1ccccc1)c1ccccc1,inactive: -3.03%
12,CC(C)C(=O)NC(Sc1ccccc1)C(Cl)(Cl)Cl (configuration not stated),inactive: -4.54%
13,c1nnnn1CCn1cnnn1,inactive: -3.72%
14,CCN(/C(=N/P(=O)(N1CCOCC1)N1CCOCC1)N1CCOCC1)c1ccc(OC)cc1,inactive: 0.073%
15,Nc1ccc([As](=O)(O)c2ccc(N)cc2)cc1,inactive: 3.16%
16,C[N+]1=C2C=CC=CC=C2SC12C([N+](=O)[O-])=CC([N+](=O)[O-])=C[C-]2[N+](=O)[O-] (configuration not stated),inactive: -20.6%
17,c1cc(-c2nn[nH]n2)ccc1-c1nn[nH]n1,inactive: -4.58%
18,CC1CCN(C(=O)Oc2c(Cl)cc(Cl)c3cccnc23)CC1,inactive: -5.3%
19,CC(C)=N/N=C(\N)N[N+](=O)[O-],inactive: -4.22%
20,CC(C)c1nc(Nc2ccccc2)n(P(=O)(N(C)C)N(C)C)n1,inactive: -10.7%
21,CN(C)C(=O)OCCc1n(C)cc[n+]1C,inactive: -6.8%
22,COc1ccc(C2=NCC(CBr)S2)cc1 (configuration not stated),inactive: 2.24%
23,Cc1ccc(NP(=O)(Oc2ccccc2)Oc2ccccc2)nc1,inactive: 2.57%
24,O=[N+]([O-])c1cc([N+](=O)[O-])c(CCNc2ccccc2)c([N+](=O)[O-])c1,inactive: -2.06%
25,CCc1nc2c(n1)c1c(non1O)c1c2no[n+]1[O-],inactive: -7.54%
26,O=[N+]([O-])c1cccc2n[nH]nc12,inactive: -4.99%

row,Structure (SMILES),inhibition
1,O=[N+]([O-])c1ncn(CCn2ncnc2[N+](=O)[O-])n1,inactive: -4.95%
2,CC(C)(C)C(=O)NC(Sc1ccncn1)C(Cl)(Cl)Cl (configuration not stated),inactive: 1.28%
3,O=C(O)CNc1ccc([As](=O)(O)O)cc1,inactive: -19.5%
4,O=[N+]([O-])c1cccc(NC2=NCC(CBr)S2)c1 (configuration not stated),inactive: -14.7%
5,COC(=O)C1(C)COP(=O)(Nc2ccccc2)OC1 (configuration not stated),inactive: -6.75%
6,O=P1(N(CCCl)CCCl)OCCCS1 (configuration not stated),inactive: -10.4%
7,O=C(Nc1cc([As](=O)(O)O)ccc1O)c1ccccc1,inactive: -12.3%
8,Nc1cccc2ccc([As](=O)(O)O)cc12,inactive: -3.96%
9,CCN(N=Nc1nonc1N)c1nonc1N,inactive: -1.85%
10,CN(C)P(=O)(N(C)C)n1c(Nc2ccccc2)nnc1-c1ccccc1,inactive: -6.02%
11,O=P(Nc1nc2ccc(Cl)cc2s1)(c1ccccc1)c1ccccc1,inactive: 4.88%
12,O=C(O)c1ccccc1[As](=O)(O)O,inactive: -17.6%
13,CC(=O)Nc1ccc([As](=O)(O)O)cc1,inactive: -10.8%
14,CCCC1OP(N)(=O)OCC1CC (configuration not stated),inactive: -4.97%
15,Cc1cc(SC(NC(=O)c2ccc(F)cc2)C(Cl)(Cl)Cl)ncn1 (configuration not stated),inactive: -6.24%
16,CN(C(=O)Cc1ccc(Cl)c(Cl)c1)[C@H]1CCCC[C@@H]1N1CCCC1,inactive: -4.79%
17,Cc1ccc(NP(=O)(Oc2ccccc2F)Oc2ccccc2F)nc1,inactive: -7.41%
18,Oc1ccccc1CNc1ccccn1,inactive: -8.17%
19,O=C(NC(Sc1ccncn1)C(Cl)(Cl)Cl)c1ccccc1 (configuration not stated),inactive: -3.46%
20,CC(C)CC(=O)NC(Sc1ccc(Cl)cc1)C(Cl)(Cl)Cl (configuration not stated),inactive: -3.2%
21,Nc1cc(N)c2nonc2c1[N+](=O)[O-],inactive: -4.34%
22,CN(C(=O)Cc1ccc(Cl)c(Cl)c1)[C@H]1CCCC[C@H]1N1CCCC1,inactive: -5.05%
23,Cc1ccc(N/C(=N/P(=O)(N2CCOCC2)N2CCOCC2)N2CCOCC2)cc1,inactive: 1.3%
24,NC(=O)c1cc([N+](=O)[O-])cc([N+](=O)[O-])c1N,inactive: -2.4%
25,Clc1ccc(Cl)c(NC2=NCC(CBr)S2)c1 (configuration not stated),inactive: -2.87%
26,COc1ccccc1OP(=O)(Nc1ccc(C)cn1)Oc1ccccc1OC,inactive: -6.6%

row,Structure (SMILES),inhibition
1,Cc1ccc(OP(=O)(Nc2nccs2)Oc2ccc(C)cc2)cc1,inactive: -3.71%
2,O=[N+]([O-])c1cc(Oc2ccc([N+](=O)[O-])cc2C(F)(F)F)cc([N+](=O)[O-])c1,inactive: -2.36%
3,COc1ccc(N/C(=N/P(=O)(N2CCOCC2)N2CCOCC2)N2CCOCC2)cc1,inactive: 3.56%
4,Cc1c2c(nc3ccccc13)SC(C(Cl)Cl)C2 (configuration not stated),inactive: -13.4%
5,Cc1cc(=O)[nH]c(N[N+](=O)[O-])n1,inactive: -1.99%
6,O=P1(N(CCCl)CCCl)OCCCN1CCCl (configuration not stated),inactive: -6.59%
7,O=P1(N(CCCl)CCCl)Nc2ccccc2N1,inactive: -7.1%
8,COc1ccc2nc(NP(=O)(c3ccccc3)c3ccccc3)sc2c1,inactive: -4.08%
9,COc1cc(I)ccc1[As](=O)(O)O,inactive: -6.73%
10,ClCCSc1nnc(-c2cccnc2)o1,inactive: -4.09%
11,CC(C)c1ccc(OP(=O)(Nc2ccccn2)Oc2ccccc2F)cc1 (configuration not stated),inactive: -13.1%
12,COC(=O)C1(C)COP(=O)(N2CCCCCC2)OC1 (configuration not stated),inactive: -6.62%
13,O=C(OC1CN2CCC1CC2)c1cccc2[nH]cnc12 (configuration not stated),inactive: -9%
14,CC(C)NC(=O)NP(=O)(Oc1ccccc1)Oc1ccccc1,inactive: -4.81%
15,O=[As](O)(c1ccc(O)cc1)c1ccccc1O,inactive: -5.1%
16,C[As](=O)(O)c1cccc(C(=O)O)c1,inactive: -18.4%
17,COc1cc(C(=O)NCC2(N3CCOCC3)CCCCC2)ccc1OCC(C)C,inactive: 2.47%
18,O=[N+]([O-])c1ccc(-c2cc([N+](=O)[O-])c(O)c([N+](=O)[O-])c2)cc1,inactive: -17.2%
19,Cc1ccc(OP(=O)(Nc2ccc([N+](=O)[O-])cn2)Oc2ccc(C)cc2)cc1,inactive: -4.5%
20,[N-]=[N+]=NC1CCCCC1NC(=O)c1cc([N+](=O)[O-])cc([N+](=O)[O-])c1 (configuration not stated),inactive: -5.73%
21,Cc1ccc2nc3c(c(C)c2c1)CC(C(Cl)Cl)S3 (configuration not stated),inactive: -7.48%
22,CCOC(=O)Nc1cccc([As](=O)(O)O)c1,inactive: -20.4%
23,Cc1cc(SC(NC=O)C(Cl)(Cl)Cl)ncn1 (configuration not stated),inactive: -16.5%
24,O=P(Nc1ccccn1)(c1cccc2ccccc12)c1cccc2ccccc12,inactive: -4.4%
